Our source for the inhibition values is PubChem BioAssay AID652197 (Broad Institute, 2013).

Amino acid sequences for entries named in this document (tags omitted). A change or cut given only in a name is not applied to a line headed by its entry.
UniProt Q9NZ08: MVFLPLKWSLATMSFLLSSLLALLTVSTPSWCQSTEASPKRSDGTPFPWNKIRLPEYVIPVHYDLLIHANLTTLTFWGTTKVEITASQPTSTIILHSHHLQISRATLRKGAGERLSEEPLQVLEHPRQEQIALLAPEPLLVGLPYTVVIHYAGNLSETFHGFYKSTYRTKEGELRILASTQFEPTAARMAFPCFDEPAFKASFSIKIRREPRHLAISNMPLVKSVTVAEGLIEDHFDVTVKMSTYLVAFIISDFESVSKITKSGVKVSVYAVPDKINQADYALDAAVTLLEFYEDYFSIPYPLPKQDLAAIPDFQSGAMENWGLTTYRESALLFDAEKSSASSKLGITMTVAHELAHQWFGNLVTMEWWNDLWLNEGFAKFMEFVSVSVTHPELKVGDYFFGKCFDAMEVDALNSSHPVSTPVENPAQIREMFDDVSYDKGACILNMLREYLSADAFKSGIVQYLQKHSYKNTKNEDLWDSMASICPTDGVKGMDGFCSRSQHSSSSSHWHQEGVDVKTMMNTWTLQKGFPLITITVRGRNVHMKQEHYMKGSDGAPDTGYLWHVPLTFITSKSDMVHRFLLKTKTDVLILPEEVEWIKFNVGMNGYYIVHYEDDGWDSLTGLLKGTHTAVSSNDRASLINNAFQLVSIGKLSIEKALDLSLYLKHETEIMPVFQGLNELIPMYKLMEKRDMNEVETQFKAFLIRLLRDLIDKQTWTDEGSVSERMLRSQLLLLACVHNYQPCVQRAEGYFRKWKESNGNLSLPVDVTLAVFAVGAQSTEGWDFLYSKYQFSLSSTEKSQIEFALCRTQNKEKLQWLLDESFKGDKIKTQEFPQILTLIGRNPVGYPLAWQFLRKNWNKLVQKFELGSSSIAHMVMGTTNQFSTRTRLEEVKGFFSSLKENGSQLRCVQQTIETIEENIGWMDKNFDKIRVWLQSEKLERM

Structures are written as SMILES. Only a part is listed here, and it is no random draw. The source made the active and inactive calls.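 Rule for the calls: active = mean replicate inhibition of at least 30%, or all replicates individually reaching that 30% level; inactive = mean below 30% and not every replicate reaching it.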

The assay concerns the target Endoplasmic reticulum aminopeptidase 1 (Homo sapiens) (UniProt Q9NZ08). Put plainly: inhibition of ERAP1 peptide trimming enzyme – biochemical, single point, plate reader, primary screen (AID 652197).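 Note: 0% = neutral control wells and 100% = L-leucinethiol positive control wells.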 The following applies: recombinant ERAP1, Leu-AMC fluorescence, 60 min; at 10.7 µM; active compounds read high.
One may read the inhibition as the drop in the measured response relative to a control, in per cent. As for `CN(C(=O)Cc1ccc(Cl)c(Cl)c1)[C@H]1CCCC[C@@H]1N1CCCC1`, the inhibition was inactive: -1.56%. For the compound `Cc1ccc(NP(=O)(Oc2ccccc2F)Oc2ccccc2F)nc1`, the inhibition is inactive: 13.8%. On to `CCn1c(=O)n(C2CCN(CC3CCCCCCC3)C[C@H]2CO)c2ccccc21` (stereo not given in full), for which the inhibition is inactive: -10.4%. The same measure for `O=C(O)c1ccccc1[As](=O)(O)O`: inactive: -0.508%; for `CC(=O)Nc1ccc([As](=O)(O)O)cc1`: inactive: -1.34%. Regarding `CCCC1OP(N)(=O)OCC1CC` (stereo not given), the inhibition was inactive: -0.285%. The same measure for `CN(C)P(=O)(N(C)C)n1c(Nc2ccccc2)nnc1-c1ccccc1`: inactive: 2.86%; for `O=P(Nc1nc2ccc(Cl)cc2s1)(c1ccccc1)c1ccccc1`: inactive: 8.96%.

For `CN(C(=O)Cc1ccccc1)C1CC[C@@]2(CCCO2)C[C@@H]1N1CCCC1` (stereo not given in full), the inhibition was inactive: -3.85%. For `Nc1cccc2ccc([As](=O)(O)O)cc12`, the inhibition was inactive: 3.18%. For `COc1ccccc1OP(=O)(Nc1ccc(C)cn1)Oc1ccccc1OC`, the inhibition is inactive: -6.33%.

Consider `Cc1ccc(OP(=O)(Nc2nccs2)Oc2ccc(C)cc2)cc1`, for which the inhibition is inactive: 1.4%. As to `Clc1ccc(Cl)c(NC2=NCC(CBr)S2)c1` (stereo not given), the inhibition was inactive: -5.65%.

Take `NC(=O)c1cc([N+](=O)[O-])cc([N+](=O)[O-])c1N`: the inhibition is inactive: 0.924%.

Regarding `CN(C(=O)Cc1ccc(Cl)c(Cl)c1)[C@H]1CCCC[C@H]1N1CCCC1`, the inhibition is inactive: -2.87%. The same measure for `Cc1ccc(N/C(=N/P(=O)(N2CCOCC2)N2CCOCC2)N2CCOCC2)cc1`: inactive: -0.883%; for `CC(C)CC(=O)NC(Sc1ccc(Cl)cc1)C(Cl)(Cl)Cl` (stereo not given): inactive: -1.42%; for `Nc1cc(N)c2nonc2c1[N+](=O)[O-]`: inactive: 1.93%. To `O=C(NC(Sc1ccncn1)C(Cl)(Cl)Cl)c1ccccc1` (stereo not given) belongs inactive: -3.06%; to `Cc1ccc(NP(=O)(Oc2ccccc2)Oc2ccccc2)nc1`, inactive: -2.94%. Take `O=[N+]([O-])c1cc([N+](=O)[O-])c(CCNc2ccccc2)c([N+](=O)[O-])c1`: the inhibition is inactive: 4.75%. To `COc1ccc(C2=NCC(CBr)S2)cc1` (stereo not given) belongs inactive: -0.377%; to `CC(C)=N/N=C(\N)N[N+](=O)[O-]`, inactive: -0.523%. On to `CC(C)c1nc(Nc2ccccc2)n(P(=O)(N(C)C)N(C)C)n1`, for which the inhibition is inactive: -2.76%. On to `c1cc(-c2nn[nH]n2)ccc1-c1nn[nH]n1`, for which the inhibition is inactive: -3.15%. To `Nc1ccc([As](=O)(O)c2ccc(N)cc2)cc1` belongs inactive: -2.23%; to `C[N+]1=C2C=CC=CC=C2SC12C([N+](=O)[O-])=CC([N+](=O)[O-])=C[C-]2[N+](=O)[O-]` (stereo not given), inactive: 1.5%; to `CCN(/C(=N/P(=O)(N1CCOCC1)N1CCOCC1)N1CCOCC1)c1ccc(OC)cc1`, inactive: -2.85%. The same measure for `O=C(Nc1cc([As](=O)(O)O)ccc1O)c1ccccc1`: inactive: -1.09%; for `O=P1(N(CCCl)CCCl)OCCCS1` (stereo not given): inactive: 4.71%; for `O=[N+]([O-])c1cccc(NC2=NCC(CBr)S2)c1` (stereo not given): inactive: -0.56%. To `COC(=O)C1(C)COP(=O)(Nc2ccccc2)OC1` (stereo not given) belongs inactive: -0.057%; to `O=C(O)CNc1ccc([As](=O)(O)O)cc1`, inactive: 0.13%. In the case of `CC(C)(C)C(=O)NC(Sc1ccncn1)C(Cl)(Cl)Cl` (stereo not given), the inhibition is inactive: 4.02%. The same measure for `O=[N+]([O-])c1ncn(CCn2ncnc2[N+](=O)[O-])n1`: inactive: -0.447%.
